From publication PMC10461227, “Discovery of AD258 as a Sigma Receptor Ligand with Potent Antiallodynic Activity” (Journal of Medicinal Chemistry, 2023)
Where a name gives a salt, the structure may show the parent alone.

Test system: capsaicin-induced mechanical hypersensitivity (allodynia) in mice
Assay: Capsaicin-induced mechanical hypersensitivity (allodynia) in mice
Assay type: in vivo

## CN1CCN(CCc2ccc(Cl)c(Cl)c2)CC1 [BD1063, 1-[2-(3,4-dichlorophenyl)ethyl]-4-methylpiperazine dihydrochloride, reference compound]
PRE-084 32 mg/kg s.c. given 5 min before the compound at its dose of maximum effect
  effect of PRE-084 on the antiallodynic effect of the compound: fully reversed
s.c., 30 min before capsaicin
  antiallodynic effect on capsaicin-induced allodynia (in words): dose-dependent and full reversal of capsaicin-induced allodynia
s.c., capsaicin-induced mechanical hypersensitivity
  dose of maximum antiallodynic effect: 40 mg/kg
